This assay addresses Melanocortin receptor 4 (Homo sapiens, UniProt P32245).

Sequences of proteins named here, by UniProt entry; tags and fusion partners are left off.
UniProt P32245, whole entry: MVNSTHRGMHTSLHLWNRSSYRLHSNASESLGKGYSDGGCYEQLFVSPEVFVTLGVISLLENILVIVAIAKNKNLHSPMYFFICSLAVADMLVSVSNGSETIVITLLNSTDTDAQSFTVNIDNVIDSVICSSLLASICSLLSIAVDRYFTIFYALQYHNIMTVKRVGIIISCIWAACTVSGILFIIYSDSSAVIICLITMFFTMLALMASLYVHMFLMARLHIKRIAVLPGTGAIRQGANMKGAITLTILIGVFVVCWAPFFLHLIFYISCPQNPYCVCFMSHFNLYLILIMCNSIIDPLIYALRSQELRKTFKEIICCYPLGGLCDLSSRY

As a reminder, the Ki is the equilibrium dissociation constant of an inhibitor or competing ligand from its target. Higher therefore signals lower affinity.

`CC(C)C(O)(C(=O)OCC1=CCN2CCC(O)C12)C(C)O` (stereo not drawn) [beta MSH, human] registered a Ki of 376 nM.

The record behind these values is BindingDB's records for doi:10.1111/j.1600-0773.1996.tb00261.x (Uppsala University, 1996).
